Four compounds from ChEMBL document CHEMBL1125007 (J Med Chem, 1990) can be followed below.

Assay [1] in a line: Relative cytotoxic potency given as Hypersensitivity ratio of (IC50 for AA8 cell line) to (IC50 for P388 leukemia cell line).
For a further assay, the system named is P388. Put plainly: Cytotoxicity against P388 leukemia cell line. Format: functional, cell-based, Mus musculus. Summed up:
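P388 murine leukemia cells kept in log phase in RPMI 1640 with 10% fetal calf serum. Drug was present in 96-well microcultures for the whole 72 h growth period. Final cell density was read by a slightly modified MTT method. IC50 is the nominal concentration cutting density to 50% of controls, with eight control cultures per plate.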

Regarding `COc1ccc(N(CCCl)CCCl)cc1`, the HF in assay [1] amounted to 42.
As a reminder, the IC50 is the concentration that inhibits the measured activity by half. On to `CSc1ccc(N(CCCl)CCCl)cc1`, for which, in assay [1], the HF amounted to 33. In the assay on P388, this compound registered an IC50 of 1.38 µM.
In the case of `Cc1ccc(N(CCCl)CCCl)cc1`, in assay [1], the HF was determined as 46.
Turning to `CS(=O)(=O)c1ccc(N(CCCl)CCCl)cc1`, in assay [1], the HF turned out to be 3.5. Moreover, the half-maximal inhibitory concentration (IC50) in the assay on P388 amounted to 39 µM.
